Test results reported in publication PMC8611036, “An integrated method for optimized identification of effective natural inhibitors against SARS-CoV-2 3CLpro” (Scientific Reports, 2021).

What was measured:
SARS-CoV-2 3CLpro [1] = target: T1, SARS-CoV-2 3CLpro (Severe acute respiratory syndrome coronavirus 2, UniProt P0DTD1); conditions: ref Zhu, Wei et al. ACS pharmacology & translational science vol. 3,5 (2020): 1008-1016, cited from earlier work
SARS-CoV-2 3CLpro [2] = target: T1, SARS-CoV-2 3CLpro

Structure (SMILES)	pIC50 (SARS-CoV-2 3CLpro [1]; from literature IC50)	IC50 (SARS-CoV-2 3CLpro [1]; unit not printed (pIC50 corresponds to µM)) [µM]	SI*pIC50 (SARS-CoV-2 3CLpro [2])
CC(=O)Nc1cnc(SSc2ccc(Br)cc2)s1 [CMP23]	5.187	6.5	
O=C(Nc1ccc(N(Cc2ccsc2)C(=O)Cn2nnc3ccccc32)cc1)C1CC1 [CMP195]			5.539
